Measurements from patent publication US8685962B2 (priority 2007, dated 2014).
Read-outs that look alike come from different tables or passages of the source.

Sequences of proteins named here, by UniProt entry; tags and fusion partners are left off.
UniProt P30536, whole entry: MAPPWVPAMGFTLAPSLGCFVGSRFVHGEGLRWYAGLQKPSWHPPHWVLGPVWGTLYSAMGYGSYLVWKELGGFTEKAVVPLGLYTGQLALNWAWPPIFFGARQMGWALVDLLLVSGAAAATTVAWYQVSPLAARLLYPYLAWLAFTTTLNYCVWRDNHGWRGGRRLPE

What was measured:
[1] = target: T1, human salivary TSPO (Homo sapiens, UniProt P30536); experiment: Competition of TSPO ligands with [3H]PK11195 binding in human saliva
T1 construct: from tissue; host or cells: cells pelleted from human saliva samples (volunteers; smokers and non-smokers)
Procedure: After 80 minutes of incubation at 4° C., the samples were filtered through Whatman CF/C filters using a vacuum system, washed three times with 4 ml of 5 mM ice-cold phosphate buffer and placed in vials containing 4 ml of Opti-Fluor. Radioactivity was counted after 12 hours with a liquid scintillation analyzer. Specific binding was obtained by subtracting non specific binding from total binding.

[2] = target: T2, TSPO receptors in SCC-25 cell line (Homo sapiens, UniProt P30536); experiment: Displacement of [3H]PK11195 from TSPO receptors in SCC-25 cells; format: binding
T2 construct: endogenous in cells; host or cells: SCC-25
Procedure: (§1) [^3H]PK 11195, an isoquinoline carboxamide derivative, was used for binding studies. PK 11195 is a specific TSPO receptor ligand. Cells were scraped from the culture dishes, washed with phosphate-buffered saline (PBS), and centrifuged at 1200 g for 10 minutes. Then the cell pellets were re-suspended in 1 mL of 50 mM phosphate buffer, pH 7.4, and centrifuged at 1200 g for 10 minutes. Binding assays contained 400 μL of cell membrane (0.4 mg of protein/mL) in the absence (total binding) or presence (non-specific binding) of 1 μM unlabeled PK 11195, up to a final volume of 500 μL. After incubation for 80 minutes at room temperature, samples were filtered under vacuum over Whatman GF/B filters and washed three times with phosphate buffer. Filters were placed in vials containing 4 mL of Opti-Fluor (Packard, Groningen, The Netherlands) and counted for radioactivity in a scintillation counter after 12 hours. The maximal number of binding sites (Bmax) and equilibrium dissociation constants were calculated from the saturation curve of [^3H] PK 11195 binding, using Scatchard analysis.
(§2) A series of competition studies using 5 compounds were conducted in order to determine the IC50 of various compounds in displacing of [^3H]PK11195 from TSPO receptors in SCC-25 and SCC-15 cell lines. […]

[3] = target: T3, TSPO receptors in SCC-15 cell line (Homo sapiens, UniProt P30536); experiment: Displacement of [3H]PK11195 from TSPO receptors in SCC-15 cells; format: binding
T3 construct: endogenous in cells; host or cells: SCC-15
Procedure: as §1, §2

[4] = target: TSPO receptor (Homo sapiens, UniProt P30536); details: background statement; cited from earlier work
[5] = target: T4, TSPO receptors in human tongue cancer cell line SCC-25 (Homo sapiens, UniProt P30536); experiment: [3H]PK11195 saturation binding (Scatchard) in SCC-25 cells; details: read-out: Kd (equilibrium dissociation constant)
T4 construct: Cells were scraped from the culture dishes, washed with phosphate-buffered saline (PBS), and centrifuged; endogenous in cells; host or cells: SCC-25
Procedure: as §1
Scatchard analysis of [^3H]PK11195 specific binding to human tongue cancer cell lines SCC-25 and SCC-15 was performed (see, FIGS. 8A and 8C for saturation curves, and FIGS. 8B and 8D for Scatchard plots for SCC-25 and SCC-15, respectively).

[6] = target: T5, TSPO receptors in human tongue cancer cell line SCC-15 (Homo sapiens, UniProt P30536); experiment: [3H]PK11195 saturation binding (Scatchard) in SCC-15 cells
T5 construct: endogenous in cells; host or cells: SCC-15
Procedure: as §1
Non-specific binding of [^3H]PK11195 to SCC-25 was a third of the total binding. […] Non-specific binding of [^3H]PK11195 to SCC-15 cells was a fourth (25±3.2%) of the total binding.

[7] = target: T6, TSPO receptor in saliva (Homo sapiens, UniProt P30536); experiment: [3H]PK11195 saturation binding with Scatchard analysis in human saliva; details: n=10, read-out: Kd (equilibrium dissociation constant)
T6 construct: from tissue; host or cells: cells pelleted from human saliva samples (volunteers; smokers and non-smokers)
Procedure: For Binding analysis, saliva samples were thawed and immediately centrifuged (800 g, 10 minutes, 4° C.). The pellet, containing saliva cells, was suspended in ice-cold phosphate buffer saline (PBS), and then homogenized using a Polytron (setting 6) for 10 seconds. Total protein amount was determined.
Binding of [^3H]PK11195 to membranes of the saliva cell was conducted, as previously described (Awad and Gavish, 1987; Kelly-Hershkovitz et al., 1988; Carmel et al., 1999). The reaction mixture contained 400 μl of the homogenized samples and 25 μl of [^3H]PK 1195 (final concentration of 0.19-6 nM), in the absence (total binding) or in the presence (non-specific binding) of 10 μM unlabeled PK 11195. […] Radioactivity was counted after 12 hours with a liquid scintillation analyzer. […]
The maximal number of binding sites (Bmax) and equilibrium dissociation constants were calculated from the saturation curve of [^3H]PK11195 binding, using Scatchard analysis.
For determination of the salivary TSPO binding characteristics, binding analysis with the TSPO receptor [^3H]PK 11195 ligand was performed. […] The mean maximal binding capacity (Bmax) and equilibrium dissociation constant (Kd) values were calculated from the saturation curves with the application of Scatchard analysis to six independent experiments. […]

For `O=C1CN=C(c2ccccc2Cl)c2cc([N+](=O)[O-])ccc2N1` [Clonazepam], the Ki [1] was over 10000 nM, the IC50 [2] was over 100000 nM and the IC50 [3] was over 100000 nM.
For `CCC(C)N(C)C(=O)c1cc2ccccc2c(-c2ccccc2Cl)n1` (stereo not shown) [PK 11195, 1-(2-chlorophenyl)-N-methyl-N-(1-methylpropyl)-3-isoquinoline carboxamide], the Ki ([1]; inhibition of [3H]PK11195 binding, human saliva, four independent experiments, read-out: Ki) is given as 6 nM, the Kd [4] is given as under 20 nM and the IC50 ([2]; 50% inhibition of [3H]PK11195 binding, SCC-25, read-out: IC50) is given as 9 ± 3 nM. For the same molecule, the IC50 ([3]; 50% inhibition of [3H]PK11195 binding, SCC-15, read-out: IC50) was 6 ± 5 nM.
For `CCC(C)N(C)C(=O)c1cc2ccccc2c(-c2ccccc2Cl)n1` (stereo not shown) [[^3H]PK11195], the Kd [5] was 5.75 ± 2 nM, the Kd [6] was 5.95 ± 4.6 nM and the Kd [7] was 6.2 ± 1.4 nM.
